This test has as its target T1, recombinant human Myt1 (full length PKMYT1) (Homo sapiens, UniProt Q99640).
T1 sequence (Q99640 1-499): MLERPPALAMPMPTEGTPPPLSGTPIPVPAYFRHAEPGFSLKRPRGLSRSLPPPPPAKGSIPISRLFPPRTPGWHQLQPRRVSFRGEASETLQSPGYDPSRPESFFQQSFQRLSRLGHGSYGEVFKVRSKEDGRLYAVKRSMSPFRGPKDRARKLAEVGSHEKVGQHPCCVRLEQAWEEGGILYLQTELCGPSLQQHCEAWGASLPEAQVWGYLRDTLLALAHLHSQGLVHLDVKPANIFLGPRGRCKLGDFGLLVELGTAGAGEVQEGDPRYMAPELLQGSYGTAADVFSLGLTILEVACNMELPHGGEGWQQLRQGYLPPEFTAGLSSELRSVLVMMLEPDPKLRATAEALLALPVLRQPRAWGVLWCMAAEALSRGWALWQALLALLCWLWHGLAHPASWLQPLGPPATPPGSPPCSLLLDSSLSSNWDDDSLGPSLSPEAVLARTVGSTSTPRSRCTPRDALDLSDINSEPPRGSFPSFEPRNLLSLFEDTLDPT
Briefly: Recombinant human Myt1 kinase assay (ADP-Glo).

Like-named read-outs stand apart in the source and are kept apart here.

The text below walks through data of patent US20230142913A1, “TRICYCLIC HETEROARENES, PHARMACEUTICAL COMPOSITIONS CONTAINING THE SAME, AND METHODS OF USING THE SAME” (priority 2021, published 2023).

What is called IC50 is the concentration at which inhibition is half-maximal.

`CCNC(=O)c1c(N)n(-c2cc(O)ccc2C)c2nc3ccccc3nc12` [Compound 19]: for the setting “read-out: Myt1 IC50”, the concentration for half-maximal inhibition (IC50) came out at 4060 nM.

`CNC(=O)c1c(N)n(-c2cc(O)ccc2C)c2nc3ccccc3nc12` [Compound 22]: the IC50 (read-out: Myt1 IC50) amounted to 690 nM.

As for `Cc1ccc2[nH]ncc2c1-n1c(N)c(C(N)=O)c2nc3ccccc3nc21` [Compound 86], for the setting “read-out: Myt1 IC50”, the IC50 came out at 53 nM.

For `NC(=O)c1c(N)n(-c2cccc3[nH]ncc23)c2nc3ccccc3nc12` [Compound 10], the half-maximal inhibitory concentration (IC50) (read-out: Myt1 IC50) amounted to 182 nM.

Regarding `Cc1ccc(O)cc1-n1c(N)c(C(=O)NCCO)c2nc3ccccc3nc21` [Compound 21], for the setting “Myt1 IC50 (nM), recombinant human Myt1 18 nM, ATP 10 μM, ADP-Glo luminescence”, the IC50 turned out to be 1160 nM.
